Tests used:
SOS1 protein = SOS1 protein (Homo sapiens, UniProt Q07889); test: SOS1 Degradation Assay in NCI-H358 (KRAS G12C) cells, Western blot; conditions: for NCI-H358 (G12C) Dmax: maximum, 24 h; for DC50: read-out: NCI-H358 (G12C) DC50, 24 h
Protocol: The degradation effect on SOS1 by compounds was investigated on KRAS G12C mutant human non-small cell lung cancer cell NCI-H358 (ATCC or Stem Cell Bank, Chinese Academy of Sciences), KRAS G12D mutant human lung cancer cell A-427 (ATCC), KRAS G12V mutant human colorectal adenocarcinoma cell SW-620 (ATCC), and KRAS G13D mutant human colorectal adenocarcinoma epithelial cell DLD-1 (ATCC). The specific procedures were as follows:
0.95 mL of cells were seeded into each well of a 24-well cell culture plate to achieve a cell density of 5×10^5 cells/well; the cell plate was incubated in an incubator at 37 °C with 5% CO2 overnight. Then 50 μL of the compound solution after dilution was added to each of the wells with the corresponding cells, so that the final concentration of the compound was in a range of 0.03-3000 nM. The final concentration of DMSO was 0.25%. After dosing, the cell plate was incubated in an incubator at 37 °C with 5% CO2 for 24 h. The cell culture medium in the 24-well plate was removed, and the plate was washed twice with 1×PBS. 180 μL of RIPA (strong) lysis buffer (Beyotime, P0013B) supplemented with 1 mM phenylmethylsulfonyl fluoride, a protease inhibitor mixture (Beyotime, P1008), and a protease phosphatase inhibitor mixture (Beyotime, P1045) was added to lyse adherent NCI-H358 cells at the bottom of the cell culture plate. After the plate was left to stand on ice for 30 min, the protein lysate in each well was transferred to a 1.5 mL centrifuge tube and centrifuged at 15000 g for 20 min at 4 °C. The cell lysate supernatant after centrifugation was cryopreserved at −80 °C for testing and was used for determining the degradation level of the SOS1 protein by a WB method. The concentration of total protein in the cell lysate supernatant was determined using the BCA protein quantification kit (Tiangen, PA115-02).
The concentration of total protein in the cell lysate was determined by BCA. The total protein was adjusted to 0.5 μg/μL with PBS and 5×SDS-PAGE protein loading buffer (Beyotime, P0015L), incubated in a water bath at 100 °C for 15 min, incubated in an ice bath for 5 min, centrifuged at 14000 g for 1 min at 4 °C, and mixed well as a loading sample for WB. Protein electrophoresis was performed on a precast gel (KeyGEN, KGMG010W15) with a loading volume of 10 μL (total protein: 5 μg) using a Tris-MOPS-SDS running solution (Adamas, P1598253) at a constant voltage of 120 V for 55 min. After the electrophoresis, the protein on the gel strip was transferred to a PVDF membrane at a constant current of 250 mA for 65 min. After the membrane transfer, the membrane was incubated in 1×QuickBlock blocking buffer (Beyotime, P0235) for 30 min at room temperature. After the blocking, the PVDF membrane was incubated with an SOS1 primary antibody (Abcam, ab140621) at 4 °C overnight, washed with a TBST buffer (2.4 g of Tris, 8.8 g of NaCl, 1.5 mL of Tween 20, with pH adjusted to 7.4, with the volume brought to 1 L) for 30 min (10 min/time), incubated with a secondary antibody (Abcam, ab205718) at room temperature for 2 h, washed with a TBST buffer for 30 min (10 min/time), and finally incubated with Clarity Western ECL Substrate (BIO-RAD, 170-5061) for 5 min for luminescence and color development, and a chemiluminescence imaging system (Clinx, ChemiScope 6200 Touch) was used for color development and protein mapping. Gray value analysis of the protein maps was performed using Clinx chemiluminescence analysis software. The gray correction value for each sample was calculated by the formula: gray correction value=(gray value of target protein/gray value of corresponding internal reference)×103. Then degradation rates were calculated by comparison with the corrected gray value of the control group. Then non-linear curve fittings for logarithmic concentration-inhibition rate were performed using GraphPad Prism 8 to yield the DC50 and Dmax values of the compounds.

By UniProt entry, the sequences of proteins in these tests, tags left out. Where a name states a change or a piece, a line headed by the entry shows the natural chain unless it says otherwise.
UniProt Q07889, whole entry: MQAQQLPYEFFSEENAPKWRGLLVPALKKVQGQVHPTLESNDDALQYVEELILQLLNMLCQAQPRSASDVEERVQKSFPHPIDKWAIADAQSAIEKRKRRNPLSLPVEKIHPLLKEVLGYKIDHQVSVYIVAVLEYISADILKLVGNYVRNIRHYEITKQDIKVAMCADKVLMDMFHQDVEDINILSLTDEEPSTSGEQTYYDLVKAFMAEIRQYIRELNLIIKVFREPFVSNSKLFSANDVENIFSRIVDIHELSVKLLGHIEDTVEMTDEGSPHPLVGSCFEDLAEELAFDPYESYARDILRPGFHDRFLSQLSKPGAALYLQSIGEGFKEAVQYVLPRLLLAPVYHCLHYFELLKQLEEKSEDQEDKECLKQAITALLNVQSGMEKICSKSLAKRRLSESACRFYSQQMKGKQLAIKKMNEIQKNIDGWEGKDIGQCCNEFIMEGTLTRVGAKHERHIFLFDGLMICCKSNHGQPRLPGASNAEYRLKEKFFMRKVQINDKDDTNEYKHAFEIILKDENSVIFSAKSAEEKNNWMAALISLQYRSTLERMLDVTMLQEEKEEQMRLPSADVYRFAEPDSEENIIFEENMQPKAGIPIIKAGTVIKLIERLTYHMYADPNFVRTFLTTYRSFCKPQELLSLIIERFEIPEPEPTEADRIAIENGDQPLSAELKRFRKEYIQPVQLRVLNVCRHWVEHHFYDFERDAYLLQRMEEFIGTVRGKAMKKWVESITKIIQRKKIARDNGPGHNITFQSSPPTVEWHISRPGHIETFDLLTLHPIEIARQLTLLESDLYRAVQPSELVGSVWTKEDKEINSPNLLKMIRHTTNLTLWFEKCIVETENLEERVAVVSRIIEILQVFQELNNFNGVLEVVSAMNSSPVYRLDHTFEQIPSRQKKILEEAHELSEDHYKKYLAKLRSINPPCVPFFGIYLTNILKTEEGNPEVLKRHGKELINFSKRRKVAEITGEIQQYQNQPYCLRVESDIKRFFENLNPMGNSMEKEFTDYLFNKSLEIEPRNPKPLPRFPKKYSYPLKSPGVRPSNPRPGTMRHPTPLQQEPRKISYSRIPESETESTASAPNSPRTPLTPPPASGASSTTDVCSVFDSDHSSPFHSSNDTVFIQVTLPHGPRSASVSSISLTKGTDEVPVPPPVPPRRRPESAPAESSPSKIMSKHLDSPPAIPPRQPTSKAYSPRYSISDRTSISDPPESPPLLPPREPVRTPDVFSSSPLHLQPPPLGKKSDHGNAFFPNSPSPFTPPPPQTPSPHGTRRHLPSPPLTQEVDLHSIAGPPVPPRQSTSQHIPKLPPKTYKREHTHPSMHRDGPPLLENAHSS

KRAS-G12C/SOS1 = KRAS-G12C/SOS1 (Homo sapiens, UniProt Q07889); test: KRAS-G12C/SOS1 Binding Assay (HTRF); conditions: read-out: KRAS G12C:SOS1 IC50, KRAS-G12C with 10 μM GTP, 25 °C 15 min, then on ice 3 h
Protocol: The following method was used to determine the extent of inhibition of KRAS-G12C/SOS1 binding by the preferred compounds of the present disclosure under in vitro conditions. In this method, the competitive inhibition of KRAS-G12C/SOS1 binding by the preferred compounds was assayed by the homogeneous time-resolved fluorescence (HTRF) technology using the KRAS-G12C/SOS1 binding assay kit (Cisbio, 63ADK000CB16PEG).
The experimental procedures were as follows (refer to the kit instructions for details): the compounds of the present disclosure were each firstly dissolved in DMSO at a concentration of 20 mM, and then diluted in an equal gradient with a buffer in the kit, so that the final concentrations of the test compounds in the reaction system were in a range of 10000 nM-0.04 nM, and the final concentration of DMSO was 0.5%, 2 μL of each compound was incubated with 4 μL of 1×Tag1-SOS1 and 4 μL of 1×Tag2-KRAS-G12C (containing 10 μM guanosine triphosphate, GTP) at 25 °C for 15 min. Then 5 μL of 1×Anti-Tag1-Tb3+ and 5 μL of 1× Anti-Tag2-XL665 were added to the reaction system, and the mixture was incubated on ice for 3 h. After the incubation, the fluorescence intensity of each well was measured at the excitation wavelength of 337 nm, the fluorescence intensity of each well was read at the emission wavelengths of 620 nm and 665 nm on a microplate reader En Vision (PerkinElmer, 2105) in an HTRF mode, and the Ratio value was calculated by the formula Ratio=(665 nm/620 nm)×104. The inhibition rates of the compounds at each concentration were calculated by comparing the fluorescence intensity ratio with that of the control group, and then non-linear curve fitting was performed by GraphPad Prism 8 in the logarithmic concentration-inhibition rate to yield the IC50 values of the compounds, as shown in Table 1.

| NCI-H358 (G12C) Dmax (SOS1 protein) | DC50 (SOS1 protein) [nM] | IC50 (KRAS-G12C/SOS1) [nM] | Compound |
| --- | --- | --- | --- |
| B (50≤Dmax (%)<80) | 50 to 100 | – | COc1cc2nc(C)nc(N[C@H](C)c3cc(N)cc(C(F)(F)F)c3)c2cc1[C@H]1CC[C@H](C(=O)N2CCN(CCCOC3CCN(C(=O)c4ccc(Cl)c(N5CCC(=O)NC5=O)c4)CC3)CC2)CC1 |
| A (80≤Dmax (%)≤100) | < 50 | 30 to 50 | [2H]C([2H])(OCCC1CCN(C(=O)[C@H]2CC[C@H](c3cc4c(N[C@H](C)c5cc(-c6c(Cl)cccc6CN(C)C)cs5)nc(C)nc4cc3OC)CC2)CC1)C1CCN(C(=O)c2ccc(Cl)c(N3CCC(=O)NC3=O)c2)CC1 |
| D (Dmax (%)<30) | 1000 to 10000 | 30 to 50 | COc1cc2nc(C)nc(N[C@H](C)c3cc(N)cc(C(F)(F)F)c3)c2cc1[C@H]1CC[C@H](C(=O)N2CCN(CCCC3CCN(c4ccc(Cl)c(N5CCC(=O)NC5=O)c4)CC3)CC2)CC1 |
| A (80≤Dmax (%)≤100) | < 50 | 50 to 100 | COc1cc2nc(C)nc(N[C@H](C)c3cc(N)cc(C(F)(F)F)c3)c2cc1[C@H]1CC[C@H](C(=O)N(C)CCCC2CCC3(CC2)CCN(C(=O)c2ccc(Cl)c(N4CCC(=O)NC4=O)c2)CC3)CC1 |
| A (80≤Dmax (%)≤100) | < 50 | 30 to 50 | [2H]C([2H])(OCCC1CCN(C(=O)[C@H]2CC[C@H](c3cc4c(N[C@H](C)c5cc(N)cc(C(F)(F)F)c5)nc(C)nc4cc3OC)CC2)CC1)C1CCN(C(=O)c2ccc(Cl)c(N3CCC(=O)NC3=O)c2)CC1 |
| A (80≤Dmax (%)≤100) | 100 to 500 | 100 to 1000 | CNCc1ccccc1-c1csc([C@@H](C)Nc2nc(C)nc3cc(OC)c([C@H]4CC[C@H](C(=O)N5CCC(CCOCC6CCN(c7ccc8c(c7)C(=O)N(C7CCC(=O)NC7=O)C8=O)CC6)CC5)CC4)cc23)c1 (some centres unmarked) |
| B (50≤Dmax (%)<80) | < 50 | 50 to 100 | COc1cc2nc(C)nc(N[C@H](C)c3cccc(C#N)c3C)c2cc1[C@H]1CC[C@H](C(=O)N2CCN(CC3CCC4(CC3)CCN(C(=O)c3ccc(Cl)c(N5CCC(=O)NC5=O)c3)CC4)CC2)CC1 |
| B (50≤Dmax (%)<80) | 50 to 100 | 30 to 50 | COc1cc2nc(C)nc(N[C@H](C)c3cccc(C(F)F)c3C)c2cc1[C@H]1CC[C@H](C(=O)N2CCN(CC3CCC4(CC3)CCN(C(=O)c3ccc(Cl)c(N5CCC(=O)NC5=O)c3)CC4)CC2)CC1 |
| A (80≤Dmax (%)≤100) | < 50 | 15 to 30 | CNCc1ccccc1-c1csc([C@@H](C)Nc2nc(C)nc3cc(OC)c([C@H]4CC[C@H](C(=O)N5CCN(CCCCC6CCN(C(=O)c7ccc(Cl)c(N8CCC(=O)NC8=O)c7)CC6)CC5)CC4)cc23)c1 |
| B (50≤Dmax (%)<80) | 50 to 100 | 15 to 30 | CNCc1ccccc1-c1csc([C@@H](C)Nc2nc(C)nc3cc(OC)c([C@H]4CC[C@H](C(=O)N5CCC(CCOCC6CCN(C(=O)c7ccc(Cl)c(N8CCC(=O)NC8=O)c7)CC6)CC5)CC4)cc23)c1 |
| A (80≤Dmax (%)≤100) | < 50 | < 15 | COc1cc2nc(C)nc(N[C@H](C)c3cc(-c4c(Cl)cccc4CN(C)C)cs3)c2cc1[C@H]1CC[C@H](C(=O)N2CCC(OCCCN3CCN(C(=O)c4ccc(Cl)c(N5CCC(=O)NC5=O)c4)CC3)CC2)CC1 |
| B (50≤Dmax (%)<80) | 100 to 500 | 15 to 30 | CNCc1ccccc1-c1csc([C@@H](C)Nc2nc(C)nc3cc(OC)c([C@H]4CC[C@H](C(=O)N5CCN(CC6CCC7(CC6)CCN(C(=O)c6ccc(C8CCC(=O)NC8=O)cc6)CC7)CC5)CC4)cc23)c1 (some centres unmarked) |
| A (80≤Dmax (%)≤100) | < 50 | 15 to 30 | COc1cc2nc(C)nc(N[C@H](C)c3cc(-c4c(Cl)cccc4CN(C)C)cs3)c2cc1[C@H]1CC[C@H](C(=O)N2CCC(COCCN3CCN(C(=O)c4ccc(Cl)c(N5CCC(=O)NC5=O)c4)CC3)CC2)CC1 |
